US20250304643A1 (BAINAN BIOTECH, published 2025)

T1: human glucose-dependent insulinotropic polypeptide receptor (human, UniProt P48546 22-466)
T1 sequence (looked up): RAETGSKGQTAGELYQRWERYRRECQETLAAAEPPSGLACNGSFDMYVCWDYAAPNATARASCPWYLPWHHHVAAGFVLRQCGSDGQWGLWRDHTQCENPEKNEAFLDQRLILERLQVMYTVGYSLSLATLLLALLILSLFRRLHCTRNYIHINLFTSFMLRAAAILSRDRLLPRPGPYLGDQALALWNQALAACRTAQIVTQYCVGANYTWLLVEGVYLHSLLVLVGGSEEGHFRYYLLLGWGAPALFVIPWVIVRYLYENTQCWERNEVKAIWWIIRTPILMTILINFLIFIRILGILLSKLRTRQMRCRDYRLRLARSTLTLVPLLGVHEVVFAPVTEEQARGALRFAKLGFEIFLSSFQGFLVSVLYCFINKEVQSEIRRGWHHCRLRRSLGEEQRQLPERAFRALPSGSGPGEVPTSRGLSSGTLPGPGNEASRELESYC

T2: human glucagon-like peptide-2 receptor (human, UniProt O95838 1-553)
T2 sequence (looked up): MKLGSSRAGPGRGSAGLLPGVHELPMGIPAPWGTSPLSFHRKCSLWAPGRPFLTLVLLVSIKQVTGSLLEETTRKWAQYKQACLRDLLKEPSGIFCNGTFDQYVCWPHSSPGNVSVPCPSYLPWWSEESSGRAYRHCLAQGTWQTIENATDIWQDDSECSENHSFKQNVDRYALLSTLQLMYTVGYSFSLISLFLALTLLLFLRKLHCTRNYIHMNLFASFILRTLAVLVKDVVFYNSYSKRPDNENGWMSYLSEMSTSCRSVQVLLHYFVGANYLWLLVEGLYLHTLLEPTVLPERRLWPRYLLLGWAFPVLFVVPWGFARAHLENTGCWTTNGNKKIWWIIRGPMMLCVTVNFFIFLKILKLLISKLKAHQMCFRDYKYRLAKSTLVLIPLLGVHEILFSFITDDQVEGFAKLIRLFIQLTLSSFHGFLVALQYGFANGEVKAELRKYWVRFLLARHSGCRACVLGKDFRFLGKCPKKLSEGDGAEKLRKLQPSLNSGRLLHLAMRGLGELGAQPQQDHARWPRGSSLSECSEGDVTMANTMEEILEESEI


Key:
[1] = molecular target: T1, human glucose-dependent insulinotropic …; test: cell-based or functional assay
[2] = molecular target: T2, human glucagon-like peptide-2 receptor; test: cell-based or functional assay

Row | EC50 (nM) GIPR [1] [nM] | EC50 (nM) GLP-2R [2] [nM] | logEC50 GLP-2R [2] | Binder
1 | 0.584 |  |  | HADGTFISDYSTILDNLAAKDFINWLIQTKITKNDWKHNITQ (C10 fatty acid at the N-terminus) [Compound no. 3]
2 | 2.93 | 50.1 | 7.3 | HADGTFISDYSTILELLAARDFINWLIQTKITKNDWKHNITQ (C16 fatty acid at the N-terminus; C-terminal COOH) [Compound no. 15]
3 |  | 27.1 | 7.6 | HADGTFISDYSTILDNLAARDFINWLIQTKITD (C16 fatty acid at the N-terminus) [Compound no. 4]
4 |  | 27.1 | 7.6 | HADGTFISDYSTILDNLAARDFINWLIQTKITD (C16 fatty acid at the N-terminus) [Compound no. 1]
5 | 1.58 | 23.3 | 7.6 | HADGTFISDYSTILDNLAARDFINWLLAQKITK (C16 fatty acid at the N-terminus) [Compound no. 46]
6 | 1.07 |  |  | HXDGTFISDYSTXLDNLAARDFINWLIQTKITK (C10 fatty acid at the N-terminus; Aib at 2 and 13; C-terminal -OH) [Compound no. 44]
7 | 4.22 |  |  | HXDGTFISDYSTXLDNLAARDFINWLIQTKITK (C10-diacid at the N-terminus; Aib at 2 and 13; C-terminal -OH) [Compound no. 18]
8 | 2.71 |  |  | HADGTFISDYSTILDNLAAKDFINWLIQTKITK (C16 fatty acid at the N-terminus) [Compound no. 45]
9 | 0.464 | 50.1 | 7.3 | HADGTFISDYSTILDNLAARDFINWLIQTKIT (C16 fatty acid at the N-terminus) [Compound no. 2]
